{"source": "patent US12319655B2", "about": "“RAF kinase inhibitors and methods of use thereof” (Deciphera Pharmaceuticals, LLC, priority 2021, dated 2025)", "test_system": "Miapaca-2 cells", "assay": "MiaPaca-2 Combination Cell proliferation Assay (1) with cobimetinib", "settings": "read-out: MiaPaca-2 Combo (1) IC50, MiaPaca-2 cell proliferation", "procedure": "MiaPaca-2 Combination Cell proliferation Assay (1)\nMiapaca-2 cells (catalog #CRL-1420) are obtained from the American Type Culture Collect (ATCC, Manassas, VA). Briefly, cells were grown in DMEM supplemented with 10% characterized fetal bovine serum (Invitrogen, Carlsbad, CA), 2.5% New Zealand sourced horse serum and 1% Penicillin/Streptomycin/L-Glutamine at 37° C., 5% CO2, and 95% humidity. Cells are expanded until reaching 70-95% confluency at which point they are subcultured or harvested for assay use. A serial dilution of test compound was dispensed into multiple 96-well black clear bottom plates in triplicate. A serial dilution of complete growth medium containing cobimetinib was prepared at twice the final concentration and 100 μL was dispensed across the test compound titration in triplicate. Three thousand cells are added per well in 100 μL complete growth medium in each 96-well plate. Plates are incubated for 67-72 hours at 37° C., 5% CO2, and 95% humidity. […] Plates are read on a Synergy2 or equivalent reader (Biotek, Winooski VT) using an excitation of 540 nm and an emission of 600 nm. Drug synergy was assessed via BLISS analysis in the Combenefit software (Cancer Research UK Cambridge Institute, Cambridge, UK). Data is analyzed using Prism software (Graphpad, San Diego, CA) to calculate IC50 values. […]"}
{"compound": "CNC(=O)c1cc(-c2cc(-c3cc(NC(=O)c4ccnc(C(F)(F)F)c4)ccc3C)ccn2)ccn1", "values": [{"measurement": "IC50", "value": "100 to 500", "unit": "nM"}]}
